Source: PubChem BioAssay (NCATS)
“And” between values parts separate entries of the source, which are not always exact repeats. Equal values may be shown once. This is a selection; strong and weak results do not stand in their true shares. Records with an inconclusive call do not appear. The source made the active and inactive calls. Unless noted, calls come from the whole dose curve; as a rule, active = well fitted curve in the direction sought with a large enough effect; inconclusive = small, poorly fitted or top-dose-only effect, or another doubt; inactive = no such curve, though single readings can be large; an effect the other way counts as inactive or inconclusive.

What was measured:
[1] = qHTS assay for measurement of the activity of small molecule inhibitors on Zika virus induced Caspase-3 activity in human iPSC derived neural progenitor cells (hNPCs) (AID 1224857); settings: hNPCs ZIKV-induced caspase-3/7, Caspase-Glo luminescence, 6 h; at 92.8 µM (top of the series) unless noted; note: % of control where 0% means no effect; nearly all actives have a fitted effect of over 65% in size
Text: National Center for Advancing Translational Sciences [NCATS]
Johns Hopkins University School of Medicine
Increase in the Caspase-3 activity indicates an activation of apoptosis cell death pathway caused by Zika virus infection in certain types of neuronal cells including human neural progenitor cells (hNPCs), astrocytes, and astrocytoma cell line (SNB-19). This cell-based caspase-3 activity assay measures the increased caspase-3 activity in the human iPSC derived neural progenitor cells (hNPCs) after a 6-hour Zika virus infection with a luminescence readout. A decrease in the luminescence signal in this assay by small molecule treatment indicates an inhibitory effect of that small molecule on the Zika virus induced caspase-3 activity that may correlate with its effect on reduction of Zika virus caused cell death.
The medium for hNPCs consists of DMEM/F12, N2 supplement (ThermoFisher, Cat.# 17502048), NEAA (ThermoFisher, Cat. # 11140050), 2 ug/ml heparin, 2 uM cyclopamine, and B27 (ThermoFisher, Cat. # 17504044). A Caspase-Glo 3/7 assay kit (catalog number G8092; Promega, Madison, WI) was used to detect caspase-3 activity induced by Zika virus infection in human cells. The reagent mixture was reconstituted as described in the protocol from the manufacturer. Polystyrene tissue culture treated and PDL coated white plates were obtained from Greiner Bio-One (Monroe, NC). Cells were seeded in 384- or 1536-well assay plates and cultured at 37 C with 5% CO2 for 16 to 20 hours. The typical cell seeding density in the 1536-well plate assay is 350 cells/well in 3 ul medium for hNPCs in tissue culture treated plates. Compounds were added to cells and incubated for one hour before addition of ZIKV solution to cells (2 FFU/cell). […] The luminescence intensity of the assay plates was measured using a ViewLux plate reader (PerkinElmer). […] The percentage inhibitions of the increased Caspase-3 activity by small molecule inhibitors were then calculated.

[2] = qHTS assay for measurement of the activity of small molecule inhibitors on Zika virus induced Caspase-3 activity in human astrocytoma cells (AID 1224859); settings: SNB-19 ZIKV-induced caspase-3/7, luminescence, 6 h; at 92.8 µM (top of the series) unless noted;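 note: plate controls were ZIKV-infected untreated cells for no effect and uninfected cells for full effect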
In short: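 A cell-based luminescent caspase-3/7 assay used SNB-19 cells infected with ZIKV (2 FFU/cell) for 6 h following 1 h compound pretreatment.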

[3] = P-glycoprotein substrates identified in KB-8-5-11 adenocarcinoma cell line, qHTS therapeutic library screen (AID 1346987); settings: KB-8-5-11 (P-gp overexpressing) viability, CellTiter-Glo, 72 h; at 93.4 µM (top of the series); note: % is set by controls: 0 for no effect and ±100 for the full control effect; nearly all actives have a fitted effect of over 65% in size
In short: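 KB-8-5-11, a colchicine-selected P-gp-overexpressing KB-3-1 subline, was grown without colchicine for the assay. Cells were seeded at 500 cells/well, dosed in concentration-response and incubated 72 h at 37 degree C, 5% CO2. Viability was read by CellTiter-Glo luminescence.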

[4] = NS1 protein of Zika virus - qHTS assay to identify small molecule inhibitors in human HEK 293 cells (AID 1347053); settings: HEK293 ZIKV MR766 infection, NS1 TR-FRET, 24 h; at 92.8 µM (top of the series);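 note: plate controls were infected untreated cells for no effect and uninfected cells for full effect; nearly all actives have a fitted effect of over 55% in size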
In short: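 HEK 293 cells pretreated with compound for 1 h, then infected with ZIKV MR766 (MOI 0.5) for 24 h at 37 C. NS1 detected by TR-FRET with two anti-NS1 antibodies; normalized to uninfected (0%) and infected (100%) wells.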

[5] = qHTS for Inhibitors of the Functional Ribonucleoprotein Complex (vRNP) of Lassa (LASV) Arenavirus: LASV Primary Screen - GLuc reporter signal (AID 1347082; calls by dose curve; tested in HEK293 reporter line; note: % is set by controls: 0 for no effect and ±100 for the full control effect; nearly all actives have a fitted effect of over 60% in size); settings: LASV minigenome vRNP, Gaussia luciferase reporter; at 57.5 µM (top of the series) unless noted
[6] = qHTS for Inhibitors of the Functional Ribonucleoprotein Complex (vRNP) of Lassa (LASV) Arenavirus: Viability assay - alamar blue signal for LASV Primary Screen (AID 1347083; calls by dose curve; tested in HEK293 reporter line; note: % is set by controls: 0 for no effect and ±100 for the full control effect; nearly all actives have a fitted effect of over 80% in size); settings: cell viability, alamar blue fluorescence (LASV minigenome counter-screen); at 57.5 µM (top of the series) unless noted
[7] = qHTS for Inhibitors of the Functional Ribonucleoprotein Complex (vRNP) of Lymphocytic Choriomeningitis Arenaviruses (LCMV): Viability assay - alamar blue signal for LCMV Primary Screen (AID 1347085; calls by dose curve; tested in HEK293 reporter line; note: % is set by controls: 0 for no effect and ±100 for the full control effect; nearly all actives have a fitted effect of over 80% in size); settings: alamar blue viability counter-screen, LCMV vRNP screen cells; at 57.5 µM (top of the series) unless noted
[8] = qHTS assay to identify small molecule inhibitors of chordoma cells - UCH-2 (AID 1259356); settings: UCH-2 chordoma viability, CellTiter-Glo ATP luminescence, 48 h; at 46.1 µM (top of the series); note: % is set by controls: 0 for no effect and ±100 for the full control effect
Text: NIH Chemical Genomics Center [NCGC]
Chordoma is a rare and slow growing tumor that can occur anywhere along the spine, from the base of the skull to the tailbone. Current treatment options for chordoma is surgery and radiation therapy for those who are not candidates for surgery. But chordomas tend to return in the same location or surrounding areas of the original tumor after surgery and/or radiation. Chemotherapy can slow down the progression of the tumor. As chordoma is slow growing, the general cytotoxic agents that kill fast growing cells are ineffective, and some patients have been reported to respond to molecularly targeted drugs.
NCATS Pharmaceutical Collection (NPC) containing approximately 3000 clinically approved and investigational drugs were used to screen at 15 concentrations in a chordoma cell lines, UCH-2, to identify small molecule compounds that can inhibit chordoma cell growth.
NCGC Assay Protocol Summary:
Human chordoma cell line UCH-2 was dispensed at 800 per well in 4uL of culture medium into white solid bottom 1536-well plates (Corning Life Sciences, Corning, NY) using a Multidrop Combi (Thermo Scientific, Waltham, MA) dispenser. […] After 30min incubation at room temperature, the luminescence signal was quantified using a ViewLux plate reader (PerkinElmer, Shelton, CT).

[9] = High-throughput drug toxicity screening in the BPDCN cell line Cal-1 (AID 1224825; call rule not given here;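 note: cells exposed to compounds for 48 h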); settings: Cal-1 BPDCN cell viability, qHTS; at 45.8 µM (top of the series)
Text: Blastic plasmacytoid dendritic cell neoplasm (BPDCN) is a rare, aggressive and largely incurable hematologic malignancy originating from plasmacytoid dendritic cells (pDCs). Although an initial response to chemotherapy is common, BPDCN prognosis is extremely poor and most patients relapse with drug-resistant disease leading to a median overall survival of ~1 year after diagnosis. To explore novel potential therapeutic strategies in BPDCN, we performed a high-throughput drug toxicity screening in BPDCN cell liens, using of a library of 1,912 small molecules, enriched for compounds that are either approved or in early stages of development for cancer therapy.
A total of 500 exponentially growing Cal-1 cells were seeded per well in 5 uL of media (RPMI + Glutamine, without phenol red plus10% FBS and 1X Pen/Strep) into 1536-well solid white high base tissue culture treated Greiner One Bio Plates (789173-F), using a multidrop combi dispenser and a small sterile cassette. […] The plates were then spun at 1000 rpms to remove bubbles and incubated for 15 minutes at room temperature before reading on a ViewLux using a luminescent filter with a 10 second exposure. The relative luciferase units were used to calculated percent activity using DMSO as 100% and Bortezomib as 0%.

[10] = qHTS Screen of the MIPE 4.0 Collection Against Ewings Sarcoma (TC32) (AID 1259256); settings: TC32 Ewing sarcoma viability, CellTiter-Glo, 48 h; at 45.8 µM (top of the series); note: nearly all actives have a fitted effect of over 45% in size
Text: There is a large unmet medical need for treatments for Ewing sarcoma, a pediatric sarcoma. We sought to identify compounds that inhibited Ewing sarcoma cells in vitro with the goal to then test promising drugs in two drug combinations in vitro to look for synergistic drug combinations. Promising combinations would then proceed to additional validation, including in vivo testing.
Using the NCATS developed oncology compound library called the Mechanism of Interrogation Plate (MIPE), four Ewing sarcoma cell lines were evaluated (TC32, TC71, RDES, EW8). Compounds, in a 12-point titration series, were incubated with cells for 48 hours and the read out was cell viability (CellTiter-Glo from Promega). These initial experiments were used to select appropriate concentrations of each single agent for subsequent two-drug matrix combinations such that the concentrations in the matrices would span both activity and non-activity.
Cells, in the log phase of growth, were seeded in 5 uL of RPMI plus 5% FBS, […] L-glutamine, 100 U/ml penicillin and 100 ug/ml streptomycin into 1536-well solid-bottom white tissue culture treated Greiner Bio One Plates (789173-F) using a MultiDrop Combi (Thermofisher Scientific) dispenser and a small sterile cassette. […] Plates were incubated at room temperature for 10 minutes prior to reading the luminescence on the Viewlux (PerkinElmer). […]

| SMILES | activity change, negative = inhibition [1] | activity change, negative = inhibition [2] | activity change, negative = cytotoxicity [3] | activity change, negative = inhibition [4] | activity change, negative = inhibition [5] | activity change, negative = reduced viability [6] | activity change, negative = lower viability [7] | activity change, negative = inhibition [8] | viability (% of control) [9] | viability (percent of control) [10] |
| --- | --- | --- | --- | --- | --- | --- | --- | --- | --- | --- |
| CCC(=O)N(c1ccccc1)C1(COC)CCN(CCc2cccs2)CC1 | inactive: 37.5% | inactive: 18% | inactive: -27.9% | inactive: -14.1% | inactive: -28.7% [at 115 µM] | inactive: -5.78% [at 115 µM] | inactive: -2.21% [at 115 µM] |  |  |  |
| CCC(=O)N(c1ccccc1)C1CCN(CCc2ccccc2)CC1 |  |  |  |  |  |  |  | inactive: -1.66% |  |  |
| CN(CCCl)CCCl | inactive: 3.38% [at 45.7 µM] and inactive: -2.15% [at 45.7 µM] | inactive: 0.926% [at 45.7 µM] and inactive: -18.6% [at 45.7 µM] |  |  | inactive: -1.29% and inactive: 5.06% | inactive: 1.66% and inactive: 0.918% | inactive: 8.06% and inactive: 21.8% | inactive: 7.16% | 2.85% | inactive: 26.1% |
| CCC(=O)N(c1ccccc1)C1(COC)CCN(CCn2nnn(CC)c2=O)CC1 | inactive: 2.27% | inactive: 2.92% |  | inactive: -23.6% | inactive: 9.23% [at 115 µM] | inactive: 7.69% [at 115 µM] | inactive: 25.8% [at 115 µM] |  |  |  |
